In publication PMC6287576 (International Journal for Parasitology: Drugs and Drug …, 2018):

Tests used:
[1] = molecular target: T1, C. elegans N-AChR (ACR-16) (Caenorhabditis elegans, UniProt P48180); experiment: Two-electrode voltage-clamp, Cel-N-AChR in Xenopus oocytes; assay type: cell-based; details: normalized to 1 mM ACh, -60 mV
T1 sequence (P48180 20-498): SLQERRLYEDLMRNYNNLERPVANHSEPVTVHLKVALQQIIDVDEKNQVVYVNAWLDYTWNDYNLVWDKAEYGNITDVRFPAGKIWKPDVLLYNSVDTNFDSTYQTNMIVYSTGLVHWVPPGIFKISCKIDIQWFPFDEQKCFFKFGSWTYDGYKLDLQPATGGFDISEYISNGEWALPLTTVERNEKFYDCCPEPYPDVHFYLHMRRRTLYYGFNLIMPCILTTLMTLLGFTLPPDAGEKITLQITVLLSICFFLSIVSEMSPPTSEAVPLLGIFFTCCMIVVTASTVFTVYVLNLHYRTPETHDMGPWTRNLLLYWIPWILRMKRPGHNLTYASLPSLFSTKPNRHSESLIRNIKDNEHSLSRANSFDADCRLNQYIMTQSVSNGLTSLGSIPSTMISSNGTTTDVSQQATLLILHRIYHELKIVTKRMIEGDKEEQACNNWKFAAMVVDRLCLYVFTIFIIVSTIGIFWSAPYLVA

[2] = molecular target: T2, P. equorum N-AChR (ACR-16) (Parascaris equorum, UniProt A0A3S9VMQ8); experiment: Two-electrode voltage-clamp, Peq-N-AChR in Xenopus oocytes; assay type: cell-based; details: normalized to 1 mM ACh, -60 mV
T2 sequence (A0A3S9VMQ8 25-504): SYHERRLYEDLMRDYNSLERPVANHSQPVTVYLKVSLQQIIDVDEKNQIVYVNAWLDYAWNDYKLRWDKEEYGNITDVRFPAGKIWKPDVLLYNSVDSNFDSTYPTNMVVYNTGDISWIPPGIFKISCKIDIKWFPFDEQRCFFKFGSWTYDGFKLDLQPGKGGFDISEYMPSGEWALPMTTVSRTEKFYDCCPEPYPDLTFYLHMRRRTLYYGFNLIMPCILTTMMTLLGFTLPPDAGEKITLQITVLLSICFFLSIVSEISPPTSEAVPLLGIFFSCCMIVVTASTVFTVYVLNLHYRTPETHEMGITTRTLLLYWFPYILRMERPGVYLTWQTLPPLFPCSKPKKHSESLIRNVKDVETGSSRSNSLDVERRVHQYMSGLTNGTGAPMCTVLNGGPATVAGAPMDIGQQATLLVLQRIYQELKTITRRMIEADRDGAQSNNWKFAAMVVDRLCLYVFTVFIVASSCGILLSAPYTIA

Question: With (±)-nornicotine as the substance, how does the EC50 [1] read?
Answer: Its EC50 is 67.7 ± 6.6 µM.

Question: What about the EC50 [2] of the same substance?
Answer: The EC50 was 34.9 ± 7.2 µM.
